# Molecular target: Adrenergic receptor alpha-1 (Rattus norvegicus) (UniProt P15823+P23944+P43140)
# The chains behind the UniProt entries cited, without tags or fusion partners. Where a name states a change or a piece, a line headed by the entry shows the natural chain unless it says otherwise.
# UniProt P15823, whole entry, looked up: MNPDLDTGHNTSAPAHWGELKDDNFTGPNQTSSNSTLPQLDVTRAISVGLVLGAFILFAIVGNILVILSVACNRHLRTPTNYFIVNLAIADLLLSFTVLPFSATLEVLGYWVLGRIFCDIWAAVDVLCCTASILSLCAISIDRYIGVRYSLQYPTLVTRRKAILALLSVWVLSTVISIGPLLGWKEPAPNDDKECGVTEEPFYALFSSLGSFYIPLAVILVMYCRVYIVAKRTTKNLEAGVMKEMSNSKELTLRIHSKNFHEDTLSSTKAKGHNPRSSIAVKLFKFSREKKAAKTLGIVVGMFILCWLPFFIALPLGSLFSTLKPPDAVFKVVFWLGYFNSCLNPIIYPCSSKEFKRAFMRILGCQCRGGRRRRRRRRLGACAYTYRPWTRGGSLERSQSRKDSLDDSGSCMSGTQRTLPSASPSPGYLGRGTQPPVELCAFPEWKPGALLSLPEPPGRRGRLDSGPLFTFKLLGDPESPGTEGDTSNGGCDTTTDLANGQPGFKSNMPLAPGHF
# UniProt P23944, whole entry, looked up: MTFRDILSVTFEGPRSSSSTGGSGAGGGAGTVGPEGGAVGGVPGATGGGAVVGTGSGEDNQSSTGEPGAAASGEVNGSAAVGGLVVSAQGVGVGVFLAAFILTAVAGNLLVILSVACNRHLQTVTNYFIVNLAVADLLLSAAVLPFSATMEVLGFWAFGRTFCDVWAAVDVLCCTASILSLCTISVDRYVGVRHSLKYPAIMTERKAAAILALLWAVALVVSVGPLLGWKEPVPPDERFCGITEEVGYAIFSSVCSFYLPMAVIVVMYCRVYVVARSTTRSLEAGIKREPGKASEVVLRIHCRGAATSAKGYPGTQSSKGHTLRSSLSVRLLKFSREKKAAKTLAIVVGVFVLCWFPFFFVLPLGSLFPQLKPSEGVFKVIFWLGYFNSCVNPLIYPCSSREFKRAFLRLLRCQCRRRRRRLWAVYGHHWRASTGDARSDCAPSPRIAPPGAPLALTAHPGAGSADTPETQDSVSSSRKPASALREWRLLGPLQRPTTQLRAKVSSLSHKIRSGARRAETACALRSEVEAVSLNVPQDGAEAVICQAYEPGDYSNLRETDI
# UniProt P43140: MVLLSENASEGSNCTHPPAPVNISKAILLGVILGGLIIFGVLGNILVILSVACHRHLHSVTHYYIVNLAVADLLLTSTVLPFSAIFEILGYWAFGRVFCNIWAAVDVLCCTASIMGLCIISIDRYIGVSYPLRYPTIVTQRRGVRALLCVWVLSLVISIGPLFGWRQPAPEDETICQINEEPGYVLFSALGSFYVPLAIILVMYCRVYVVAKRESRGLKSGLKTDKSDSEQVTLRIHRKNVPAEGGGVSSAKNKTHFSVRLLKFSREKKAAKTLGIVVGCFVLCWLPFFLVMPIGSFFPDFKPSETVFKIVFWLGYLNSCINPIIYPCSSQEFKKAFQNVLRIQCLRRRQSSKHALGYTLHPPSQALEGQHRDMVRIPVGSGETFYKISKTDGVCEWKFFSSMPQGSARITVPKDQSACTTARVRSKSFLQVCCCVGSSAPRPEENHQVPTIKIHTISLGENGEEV
# Test: Compound was evaluated for alpha adrenoceptor agonistic activity towards Alpha-1 adrenergic receptor of isolated rat vas deferens (exp 1)
# Type: functional, tissue-based
row,SMILES,pD2
1,Oc1ccc(C2(O)CCCNC2)cc1O (configuration not stated),4.53
2,Oc1ccc(C2CNCCO2)cc1O (configuration not stated),4.75
